Measurements as given in patent publication US20020076827A1, “Methods for diagnosing thyroid conditions and for monitoring thyroxine therapy” (priority 2000, published 2002).

Experiments:
[1] = Stability of TSH in urine and serum; format: physicochemical; conditions: room temperature and refrigerator temperature, BioDx stabilizing solution added
Method: In the laboratory, those urines were centrifuged at 1,000 g for 10 min to remove particulate matter and volume, pH and specific gravity determined. For storage, a proprietary mixture containing buffer and preservatives (BioDx buffer) was added. This solution was shown not to interfere with determinations. Specimens from both studies were stored similarly at −20 degrees Centigrade.
The stability of TSH in urine and serum was determined at room temperature, 4 C. and −20 C. BioDx stabalizing solution was added to each sample (FIG. 3). […] In fact, more differences were attributable to the instability of the instrument than the samples.

[2] = Stability of urine standard sub-pools measured monthly; format: physicochemical; conditions: 2 ml vials stored at -20 degrees Centigrade
Method: The BioDx urinary standards have precision coefficients similar to those reported by Abbott for their serum standards. In the second study, a standard pool was established by collecting urine from two volunteers who were judged to be normal by blood measurements of TSH and thyroid hormones. […] These sub-pools were aliquoted into 2 ml vials and stored as above.

In the case of “TSH: Human thyroid stimulating hormone, a glycoprotein of two subunits secreted by the pituitary gland”, the “stability of TSH” value [1] is reported as “stable for over a year” and the “concentration in urine standard sub-pools over time” value [2] is reported as “unchanged for over a year”.
